E-sel inducer – E-selectin induction on HUVECs; 260,000 tested, 0.37% active; activation, % at 7.58 µM; AID 686992; P16581; HUVEC E-selectin immunofluorescence imaging; normalized: neutral wells 0, TNF-alpha wells 100;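 active = mean E-selectin-positive cell signal at least 10% of the positive control, reached in at least 60% of replicates, without over 20% cell loss; inconclusive = no rule given, readout overlaps actives, possibly toxicity-flagged; inactive = the rest, including those meeting only one limit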
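Read-out: % PE-positive cells | Test system: HUVEC | Doses: One compound dose added by pin transfer | Buffer or medium: EGM-2 over gelatin coat | Signal: Immunofluorescence imaging | Benchmarks: TNF-alpha, DMSO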
Cneo AK release – Cryptococcus neoformans lysis via adenylate kinase release | C. neoformans lysis, adenylate kinase release luminescence, 4 h; normalised: neutral wells 0, clomiphene wells 100 | lysis activity, % at 15 µM | 360,000 tested, 0.2% active | AID 651654;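 active = mean lysis activity across replicates of at least 80%, whatever share of replicates individually reach that level; inactive = mean lysis activity below 80%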
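Test system: log-phase Cryptococcus neoformans yeast cells; Quantity: yeast cell density of 5 × 10^6 cells/mL; Buffer or medium: YPD; Doses: single compound concentration per well; Timing: 4 h at 37 °C static, read 1 h later; Measured by: AK luminescence; Read-out basis: lysis from increased AK signal; Control set: Clomiphene as positive control.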
UUG fidelity – modulators of start codon recognition fidelity in yeast; AID 602363; activity score, % at 18.7 µM; S. cerevisiae UUG-firefly luciferase reporter, luminescence/redox ratio; actives 0.13% (n = 350,000);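 active = replicate mean at a twofold rise or more, about +100% in these data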;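 note: firefly luciferase made from a UUG start codon reports start codon fidelity; reporter light over untreated wells divided by growth signal over untreated wells; some hits fall short of that in this replicate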
DENV2 CPE rescue – protects cells from dengue virus 2 cytopathic effect; AID 651640; 350,000 tested, 1.7% active; DENV2-infected cells, cytopathic effect rescue, plate reader; CPE inhibition, % at 9.99 µM; in the data active = CPE inhibition above about 20%, passing the limit was not always enough; inconclusive = no clear call, values can overlap the other calls; tested in BHK-21 cells;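 also: 0% = median of neutral control wells and 100% = median of positive control wells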
An asterisk follows results filed as active. The list is not random: actives were taken first. Their share in the collection is about 1.8%.

How did COc1ccc(NC(=O)CCCn2c(=S)[nH]c3ccccc3c2=O)cc1 do in these assays?
E-sel inducer: 90*; Cneo AK release: 0; UUG fidelity: -14; DENV2 CPE rescue: 13

What do the screens show for `C[C@H]1CCCCO[C@H](CN(C)Cc2ccccc2)[C@@H](C)CN([C@@H](C)CO)C(=O)c2cc(NC(=O)C3CCCCC3)ccc2O1`?
E-sel inducer: 0; Cneo AK release: 2; UUG fidelity: 19; DENV2 CPE rescue: -4

How did O=C(C[C@H]1C=C[C@H](NC(=O)C2CCOCC2)[C@H](CO)O1)Nc1nccs1 do in these assays?
E-sel inducer: 0; DENV2 CPE rescue: 11

Results for CCN(CC(=O)Nc1ccc(NC(C)=O)cc1)C(=O)Cc1c(Cl)cccc1Cl ?
E-sel inducer: 0; Cneo AK release: -1; UUG fidelity: -12; DENV2 CPE rescue: 55*

How did CCCC(=O)Nc1ccc2c(c1)C(=O)N(C)[C@H]1CC[C@@H](CC(=O)NCC3CC3)O[C@H]1CO2 do in these assays?
E-sel inducer: 0; Cneo AK release: 1; UUG fidelity: 2; DENV2 CPE rescue: 2

Results for CCOC(=O)c1c(NC(=O)c2ccno2)c2cc([N+](=O)[O-])ccc2n1C ?
DENV2 CPE rescue: 84*

What do the screens show for `CNC(=O)C[C@@H]1CC[C@H]2[C@H](COc3ccc(NC(=O)Nc4cccc(F)c4)cc3C(=O)N2C)O1`?
E-sel inducer: 0; Cneo AK release: -2; UUG fidelity: 11; DENV2 CPE rescue: 14

Results for O=C1[C@H](Cc2ccccc2)NCC=CC[C@H](c2ccc(Cl)cc2)N1Cc1ccccc1 ?
E-sel inducer: 0; Cneo AK release: 1; UUG fidelity: -14; DENV2 CPE rescue: 25*

What do the screens show for `CO[C@H]1CN(C)C(=O)c2ccc(NC(=O)c3cccc(F)c3)cc2OC[C@@H](C)N(C)C[C@@H]1C`?
E-sel inducer: 0; Cneo AK release: -1; UUG fidelity: 5; DENV2 CPE rescue: 1

Results for O=C(c1c(F)cccc1F)N(Cc1ccccc1)Cc1ccccc1 ?
E-sel inducer: 32*; Cneo AK release: -1; UUG fidelity: -1; DENV2 CPE rescue: -3

Filtered by structure, the entries above with nitrogen in an aromatic ring (three)
How did COc1ccc(NC(=O)CCCn2c(=S)[nH]c3ccccc3c2=O)cc1 do in these assays?
E-sel inducer: 90*; Cneo AK release: 0; UUG fidelity: -14; DENV2 CPE rescue: 13

How did O=C(C[C@H]1C=C[C@H](NC(=O)C2CCOCC2)[C@H](CO)O1)Nc1nccs1 do in these assays?
E-sel inducer: 0; DENV2 CPE rescue: 11

Results for CCOC(=O)c1c(NC(=O)c2ccno2)c2cc([N+](=O)[O-])ccc2n1C ?
DENV2 CPE rescue: 84*

Other results follow.
Results for CC(C)NC(=O)N(C)C[C@@H]1Oc2ncc(C#CC3CC3)cc2C(=O)N([C@@H](C)CO)C[C@@H]1C ?
E-sel inducer: 0; Cneo AK release: 3; DENV2 CPE rescue: 0

How did COc1ccc(NC(=O)N[C@@H]2CC[C@@H](CCn3cc(-c4ccccc4)nn3)O[C@@H]2CO)cc1 do in these assays?
E-sel inducer: 5; Cneo AK release: 2; UUG fidelity: -13; DENV2 CPE rescue: 19

How did COCc1cn(CC[C@@H]2CC[C@@H](NC(=O)Nc3ccc(OC)cc3)[C@H](CO)O2)nn1 do in these assays?
E-sel inducer: 0; Cneo AK release: 3; UUG fidelity: 2; DENV2 CPE rescue: 3

How did COc1ccc(NC(=O)N[C@H]2CC[C@H](CCn3cc(-c4ccccc4)nn3)O[C@@H]2CO)cc1 do in these assays?
E-sel inducer: 0; Cneo AK release: 5; UUG fidelity: -13; DENV2 CPE rescue: 37*

How did COc1cccc(-c2cn(CC[C@@H]3CC[C@H](NC(C)=O)[C@H](CO)O3)nn2)c1 do in these assays?
E-sel inducer: 1; Cneo AK release: 0; UUG fidelity: 10; DENV2 CPE rescue: 4

How did COCc1cn(CC[C@H]2CC[C@H](NC(=O)Nc3ccc(OC)cc3)[C@H](CO)O2)nn1 do in these assays?
E-sel inducer: -2; Cneo AK release: -2; UUG fidelity: 216*; DENV2 CPE rescue: inconclusive

How did COc1cccc(-c2cn(CC[C@@H]3CC[C@H](NC(C)=O)[C@@H](CO)O3)nn2)c1 do in these assays?
E-sel inducer: 0; Cneo AK release: 94*; UUG fidelity: 12

How did O=C(Nc1ccc(Cl)cc1)N[C@H]1CC[C@@H](CCn2cc(Cc3ccccc3)nn2)O[C@H]1CO do in these assays?
E-sel inducer: -2; Cneo AK release: -4; UUG fidelity: -7; DENV2 CPE rescue: 46*

Results for COc1ccccc1CNC(=O)C[C@@H]1C[C@H]2c3cc(NC(=O)Nc4ccc(C(F)(F)F)cc4)ccc3O[C@H]2[C@@H](CO)O1 ?
E-sel inducer: 5; Cneo AK release: -3; DENV2 CPE rescue: 36*

How did COCCNC(=O)C[C@@H]1C[C@H]2c3cc(NC(=O)C4CCC4)ccc3O[C@H]2[C@@H](CO)O1 do in these assays?
E-sel inducer: 1; Cneo AK release: 84*; UUG fidelity: 13

What do the screens show for `COCCNC(=O)C[C@@H]1C[C@H]2c3cc(NC(=O)Nc4ccc(OC)cc4)ccc3O[C@H]2[C@H](CO)O1`?
E-sel inducer: 0; Cneo AK release: -4; UUG fidelity: 13; DENV2 CPE rescue: 23*

How did O=C1CNC[C@@H]2[C@H](c3ccc(C4=CCCCC4)cc3)[C@@H](CO)N12 do in these assays?
E-sel inducer: 0; DENV2 CPE rescue: -4

How did COc1ccc(S(=O)(=O)Nc2ccc3c(c2)CC(=O)N([C@H](C)CO)C[C@@H](C)[C@@H](CN(C)Cc2ccc(C(=O)O)cc2)O3)cc1 do in these assays?
E-sel inducer: 0; Cneo AK release: -4; UUG fidelity: -19; DENV2 CPE rescue: -7

Results for Cc1ccccc1C[n+]1cccc2ccccc21 ?
E-sel inducer: 0; Cneo AK release: 5; UUG fidelity: -5; DENV2 CPE rescue: 31*

Results for CC1CN(C(=O)COC(=O)CSc2ccc(C(N)=O)cc2[N+](=O)[O-])CC(C)O1 (stereo not given) ?
E-sel inducer: 219*; DENV2 CPE rescue: -5

Results for COc1ccc(C(=O)N2C[C@@H]3[C@H](c4ccccc42)[C@H](CO)N3C(=O)NC(C)C)cc1 ?
E-sel inducer: 0; Cneo AK release: 2; UUG fidelity: -7; DENV2 CPE rescue: 27*

What do the screens show for `CC(C)NC(=O)N1[C@@H](CO)[C@@H]2c3ccccc3N(C(=O)Nc3ccc(Cl)cc3)C[C@@H]21`?
E-sel inducer: 1; Cneo AK release: -15; UUG fidelity: -5; DENV2 CPE rescue: -3

How did O=S(=O)(c1ccc(F)cc1)N1C[C@@H]2[C@H](c3ccccc31)[C@@H](CO)N2Cc1ccccc1Cl do in these assays?
E-sel inducer: 0; Cneo AK release: 92*; UUG fidelity: 44; DENV2 CPE rescue: -6

Results for CC(C)NC(=O)N1[C@H](CO)[C@H]2c3ccccc3N(C(=O)Nc3ccccc3)C[C@H]21 ?
E-sel inducer: 0; Cneo AK release: -6; UUG fidelity: -7; DENV2 CPE rescue: 21*

How did O=C(Nc1ccccc1)N1C[C@@H]2[C@H](c3ccccc31)[C@@H](CO)N2Cc1ccccc1Cl do in these assays?
E-sel inducer: 1; Cneo AK release: 1; UUG fidelity: 11; DENV2 CPE rescue: 37*

What do the screens show for `COc1ccc(S(=O)(=O)N(C)C[C@@H]2Oc3ccc(NS(=O)(=O)c4cccs4)cc3C(=O)N([C@@H](C)CO)C[C@@H]2C)cc1`?
E-sel inducer: 0; Cneo AK release: 1; UUG fidelity: -6; DENV2 CPE rescue: -13

How did CCCCCc1c(-c2ccc(Cl)cc2)ncn1CCc1ccccc1OC do in these assays?
E-sel inducer: 0; DENV2 CPE rescue: 21*

How did CCCCCc1c(-c2ccc(OC)cc2)ncn1CCc1ccccc1OC do in these assays?
E-sel inducer: 0; DENV2 CPE rescue: -7
